Test results as given in patent US4016250A, “Method for testing for pregnancy” (Cornell Research Foundation, Inc., priority 1974, dated 1977).
“Also recorded” adds a separate entry of the source.

Amino acid sequences for entries named in this document (tags omitted). Residues count along the entry.
UniProt Q28005, 27-701: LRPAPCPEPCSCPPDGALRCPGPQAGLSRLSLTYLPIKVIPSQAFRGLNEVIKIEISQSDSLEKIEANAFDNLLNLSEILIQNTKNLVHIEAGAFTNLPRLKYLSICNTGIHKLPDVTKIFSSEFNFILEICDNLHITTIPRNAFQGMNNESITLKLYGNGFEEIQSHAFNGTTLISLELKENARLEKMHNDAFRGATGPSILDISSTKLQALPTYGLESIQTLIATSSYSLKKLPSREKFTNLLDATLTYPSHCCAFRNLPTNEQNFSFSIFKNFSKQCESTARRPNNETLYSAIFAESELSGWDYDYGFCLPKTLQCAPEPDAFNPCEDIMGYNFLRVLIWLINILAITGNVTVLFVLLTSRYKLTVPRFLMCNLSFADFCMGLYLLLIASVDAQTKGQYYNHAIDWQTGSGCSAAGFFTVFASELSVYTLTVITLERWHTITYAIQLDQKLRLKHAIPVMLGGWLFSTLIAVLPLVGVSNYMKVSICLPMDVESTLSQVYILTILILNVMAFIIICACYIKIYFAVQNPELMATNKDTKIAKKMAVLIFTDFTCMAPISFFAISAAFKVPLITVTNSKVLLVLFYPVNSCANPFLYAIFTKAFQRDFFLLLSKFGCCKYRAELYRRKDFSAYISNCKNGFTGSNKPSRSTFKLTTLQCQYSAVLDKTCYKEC

Key:
[1] = target: T1, receptor for HCG in plasma membranes from bovine corpora lutea (Bos taurus, UniProt Q28005); assay: Radioreceptorassay of HCG: competition with 125I-HCG for plasma membrane receptor; type: binding; conditions: for cross-reaction in the radioreceptorassay of HCG (FIG. 2): FIG. 2 legends: TSH, HGH, PRL are plasma from hypothyroid, acromegalic, postpartum lactation subjects
T1 construct: 100 g. of tissue from approximately 25 large corpora lutea; from tissue; host or cells: bovine corpora lutea of early pregnancy (slaughterhouse), plasma membrane fraction from zonal sucrose gradient
Experimental: All procedures in the preparation of plasma membranes were carried out in an ice bath or at 4° C. Fresh bovine ovaries from early pregnancy (first trimester: fetus length from crown to rump up to 22 cm.) were obtained from the slaughter house and stored in liquid nitrogen until processed. In a typical experiment, 100 g. of tissue from approximately 25 large corpora lutea were cut into small pieces with a sharp steel blade and ground in 500 ml. of 10 mM. Tris-HCl buffer of pH. 7.8 containing one mM. of MgCl2, one MM. dithiothreitol, 10,000I.U. of Trasylol (FBA Pharmaceuticals) per liter and 0.25 M. sucrose. The homogenate was filtered through two layers of cheese cloth and the larger particles were reprocessed in 500 ml. of the buffer. […] The homogenate was centifuged at 650 xg. for 20 minutes in a Sorvall refrigerated centrifuge (RC B, Rotor GSA) to remove intact cells, cell debris and nuclei. The 650 × g. supernatant was again centrifuged at 13,000 g. for 20 minutes in the same centrifuge. Supernatant was this time discarded and the pellet was resuspended in 50 to 70 ml. of the Tris-HCl buffer with the aid of the Teflon-glass homogenizer. This suspension was injected in the core of a TI-14 zonal rotor (Model Beckman Spinco L3-50) spinning at 3,000 rpm. and containing 500 ml. of a linear sucrose gradient (LKB Ultrograd 11300 pump) from 30% (w/v) to 50% (w/v) sucrose and 120 ml. of cushion of 50% (w/v) sucrose (pumping rate 20 ml./min.) An overlay of 20 ml. was injected after the sample. After two hours of centrifugation at 45,000 rpm., the centrifuge was decelerated and the rotor content displaced with 55% sucrose at 20 ml./min. The plasma membranes were displaced from the rotor in the order of increasing particle size, and fractions of 12 ml. were collected and immediately frozen until assayed for binding and enzynatic activity. Membranes were kept frozen during three months without apparent loss of binding ability. Aliquot of the fractions were taken for electron microscopy before freezing.
A fraction showing the highest binding with the labeled HCG, a low enzyme activity and containing pure plasma membranes as shown by electron microscopy was eluted at a sucrose density of 1.16 (ca 35% w/v). Suitable aliquots of this fraction were stored in liquid nitrogen and used as the receptor.
In Table I, the incubation was performed for 30 minutes at 37° C. in a Dunaboff water bath shaker. One ml. of chilled diluent was then added to each tube. […] The supernates were aspirated and the pellets were counted in a Packard Autogamma counter with a 51% efficiency for I^125. The standard curves and the hormonal concentration in the plasma samples were calculated by a time sharing IBM computer using logit-log transformations.

[2] = system: ovarian ascorbic acid depletion; assay: Ovarian ascorbic acid depletion assay of labeled HCG; type: in vivo; conditions: I125-labeled HCG used in the test; 95% confidence limits 5,826-12,250 I.U./mg
Experimental: Highly purified HCG (containing 12,000 I.U./mg. was utilized for the testing. The HCG was labeled with I^125 by using lactoperoxidase prepared from milk (RZ = 0.78; Sigma Company, St. Louis, Missouri). Two mCi of I^125 in 20 ul. of 0.1 M. sodium acetate buffer of pH. 60 were mixed with 25 ug. of HCG in a reaction vial. An aliquot of 50 ng. lactoperoxidase in 20 ul. and 200 ng. of H2 O2 in 10 ul. of water are then added to the vial. Three aliquots of 100 ng. of H2 O2 were added at five minute intervals. The end of 20 minutes, the reaction was stopped by the addition of 0.5 ml. of 0.15 M. NaCl containing 1% of bovine serum albumin (BSA) of pH. 7.0. The labeled hormone was then separated from free iodine by gel filtration on a 1x30 cm. column of Sephadex G-100 equilibriated with 0.15 m. NaCl containing 1% of BSA, pH. 7.0. The specific activity of the labeled HCG was determined by precipitation with trichloroacetic acid. Five ul. of the crude reaction mixture was diluted to 5 ml. with 0.05 M. phosphate buffer of pH. […] The radioactivity associated with the precipitable material was considered as protein bound and was used in the calculation of the specific activity of the labeled hormone. […] The biological activity of the labeled HCG used in the test, as determined by ovarian ascorbic acid depletion assay, was 8,923 I.U./mg. with 95% confidence limits of 5,826-12,250 I.U./mg.

[3] = target: T2, PRL receptor sites in ovarian homogenates (Bos taurus, UniProt Q28172); assay: Specificity of 125I-hPRL binding: displacement by unlabeled hormones; parameters: species or system bovine; conditions: various concentrations
T2 construct: from tissue; host or cells: ovarian homogenate (bovine, from the preparation section)
T2 sequence (Q28172 25-581): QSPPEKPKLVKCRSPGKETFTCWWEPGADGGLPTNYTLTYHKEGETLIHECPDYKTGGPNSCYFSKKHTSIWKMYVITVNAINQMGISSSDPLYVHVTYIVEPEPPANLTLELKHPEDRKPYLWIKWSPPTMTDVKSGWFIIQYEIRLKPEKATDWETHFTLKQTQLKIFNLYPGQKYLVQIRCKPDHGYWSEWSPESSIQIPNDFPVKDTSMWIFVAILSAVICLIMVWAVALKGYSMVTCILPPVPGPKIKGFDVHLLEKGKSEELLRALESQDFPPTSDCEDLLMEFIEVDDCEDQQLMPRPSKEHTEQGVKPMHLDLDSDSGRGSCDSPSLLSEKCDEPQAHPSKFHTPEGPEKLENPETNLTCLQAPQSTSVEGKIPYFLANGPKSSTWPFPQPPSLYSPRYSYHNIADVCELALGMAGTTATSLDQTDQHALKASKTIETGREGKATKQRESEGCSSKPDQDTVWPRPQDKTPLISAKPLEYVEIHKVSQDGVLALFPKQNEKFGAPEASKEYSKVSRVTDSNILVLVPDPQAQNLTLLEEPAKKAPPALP
Experimental: A reaction mixture containing 100 ul of incubation buffer containing 10 IU Trasylol (FBA Pharmaceuticals, New York, New York), 50 ul of receptor preparation equivalent to 1-300 ug of protein and 100 ul of ^125 I-hPRL (SA; 50-70 uCi/ug) were incubated at 37° C. for 2 hours in the absence and in the presence of 1 ug of unlabeled bovine PRL. At the end of incubation, 1 ml of ice cold buffer was added to all tubes and tubes were centrifuged at 5,000 rpm for 20 minutes. The supernatants were aspirated. The pellets containing receptor bound hormones were counted in an Automamma counter with a 51% efficiency for ^125 I (Packard Instrument Company, Downers Grove, Illinois). Specific binding was calculated as the difference of binding in the tubes with and without unlabeled PRL.

Substance	cross-reaction in the radioreceptorassay of HCG (FIG. 2) [1]	biological activity of the labeled HCG [2]	displacement of 125I-hPRL bound to receptor protein [3]	cross-reaction in the radioreceptorassay of HCG ([1]; highly purified preparations, 30 minutes at 37° C)	discrimination from HCG in the radioreceptorassay [1]
thyroid stimulating hormone [TSH]	no cross-reaction	–	–	–	–
labeled HCG: Highly purified human chorionic gonadotropin labeled with I125 using lactoperoxidase	–	8,923 I.U./mg	–	–	–
follicle stimulating hormone [FSH]	no cross-reaction	–	No displacement	complete lack of cross-reaction	–
luteinizing hormone [LH]	–	–	No displacement	–	did not discriminate between HCG and LH; also recorded: did not discriminate between LH and HCG
